Paper PMC12333026, “Versatile Imidazole Scaffold with Potent Activity against Multiple Apicomplexan Parasites” (ACS Infectious Diseases, 2025)

Target: T1, TgCDPK1 WT (Toxoplasma gondii, UniProt Q9BJF5)
T1 sequence (Q9BJF5 1-507): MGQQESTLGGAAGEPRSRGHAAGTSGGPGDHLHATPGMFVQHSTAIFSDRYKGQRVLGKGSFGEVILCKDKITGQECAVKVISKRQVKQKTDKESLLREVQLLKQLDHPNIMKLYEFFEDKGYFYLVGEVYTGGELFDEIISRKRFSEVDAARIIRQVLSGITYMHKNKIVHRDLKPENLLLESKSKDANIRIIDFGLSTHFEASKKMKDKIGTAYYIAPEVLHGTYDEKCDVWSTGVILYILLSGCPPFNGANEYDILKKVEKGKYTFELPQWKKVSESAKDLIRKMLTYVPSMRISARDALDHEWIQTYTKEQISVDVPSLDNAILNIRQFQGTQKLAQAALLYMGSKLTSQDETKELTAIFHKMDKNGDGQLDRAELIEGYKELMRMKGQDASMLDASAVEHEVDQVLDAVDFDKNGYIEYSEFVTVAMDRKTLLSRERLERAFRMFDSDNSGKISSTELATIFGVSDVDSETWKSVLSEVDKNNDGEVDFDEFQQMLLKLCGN
Conditions: TgCDPK1 versus PfCDPK4; 90 min
Experimental: Recombinant expression of PfCDPK1, PfCDPK4, TgCDPK1 WT, TgCDPK1-G128M, CpCDPK1 and CpCDPK1-G152 M were purified as previously described. […] These reactions were performed in a buffer composed of 1 mM EGTA (pH 7.2), 10 mM MgCl2, 20 mM HEPES pH 7.5 (KOH), 0.1% BSA. The reactions were initiated with addition of 10 μM ATP and 2 mM CaCl2 as enzyme activation reagent. Reaction plates were incubated for 90 min with 90 rpm agitation at 30 °C. […] KinaseGlo (Promega) luminescence-based assay in which luminescence is inversely related to kinase activity and […] was used as previously described.

Compound: O=C(c1nccs1)N1CC[C@@H](Nc2nccc(-n3cc(C4CC4)nc3-c3cccc(Cl)c3)n2)C1 [(R)-RY-1-185]
- IC50 for TgCDPK1 lower than for PfCDPK4: over 30 fold
